Measured values from patent publication US20230372337A1, “Combination Therapy Comprising an AXL Inhibitor” (BERGENBIO ASA, priority 2020, published 2023).

Experiments:
Assay type in all cases: cell-based, mouse
4T1 cells [1] = experiment: qRTPCR of IFN related genes in 4T1 cells in vitro (Example 4); details: IFNB 48 hours, supplemental Gas6, N=24 ISG
4T1 cells [2] = experiment: RNA sequencing of 4T1 cells in vitro (Example 4); details: without supplemental Gas6
Yumm1.7 cells = experiment: qRTPCR of IFN related genes in Yumm1.7 cells in vitro (Example 4); details: IFNB without bemcentinib
LL2 cells = experiment: qRTPCR of IFN related genes in Lewis lung carcinoma (LL2) cells in vitro (Example 4); details: IFNB 48 hours
Protocol: 4T1 cells (ATCC, CRL-2539) were cultured in RPMI-1640 (Sigma, Cat. #R8758) supplemented with 10% fetal bovine serum (FBS), L-glutamine (4 mM), streptomycin (5 μg/ml) and penicillin (5 U/ml). […] Lewis lung carcinoma cells LL/2 (LLC1) (ATCC, CRL-1642™) were cultured in Dulbecco's Modified Eagle's Medium ATCC® 30-2002™ (4 mM L-glutamine, 4500 mg/L glucose, 1 mM sodium pyruvate, and 1500 mg/L sodium bicarbonate).
RNA was extracted from snap frozen tumors using the RNEasy Microarray Tissue Mini kit from Qiagen following the manufacturer's instructions. As tumors contained Doxorubicin and powderizing them could expose personnel to harmful substances, the RNA was extracted in a closed system using the GentleMACS dissociator and M Tubes. Purity and concentration of RNA was measured using Nanodrop. […] The plates were analyzed using Light Cycler 480 (Roche) and data were analyzed using the Qiagen Data Analysis Centre and Graph Pad (Prism).
Chemotherapeutic agents commonly used to treat lung cancer patients were evaluated for effects on the IFN response. […] Sting agonist DMXAA, doxorubin and IFNB were also evaluated for comparison.
The IC50 of the different drugs were calculated by resazurin viability assay. […]

B1: IFNB: interferon beta used for direct IFN stimulation of cells (protein, UniProt P01574 22-187, looked up)
Interferon beta: MSYNLLGFLQRSSNFQCQKLLWQLNGRLEYCLKDRMNFDIPEEIKQLQQFQKEDAALTIYEMLQNIFAIFRQDSSSTGWNETIVENLLANVYHQINHLKTVLEEKLEKEDFTRGKLMSSLHLKRYYGRILHYLKAKEYSHCAWTIVRVEILRNFYFINRLTGYLRN
- ISG with increased expression, fold change above 2 (number) (4T1 cells [1]): 10
- IFN related gene expression by RNA sequencing (4T1 cells [2]): upregulated
- Fold changes of many ISG (Yumm1.7 cells): above 100 fold
- ISG significantly upregulated (number) (LL2 cells): 6
